Literature values, collected in patent US20120088773A1, “Circadian rhythm modulation” (priority 2010, published 2012).

Conditions: adults, several months; (50,000 IU)/day; Merck manual

For vitamin D, the “dose that can produce toxicity” value is given as 1250 µg/day.
